# Assay results from publication PMC6000670, “Dihydropyridines Allosterically Modulate Hsp90 Providing a Novel Mechanism for Heat Shock Protein Co-induction and Neuroprotection” (Frontiers in Molecular Biosciences, 2018).
# Assay: Solubility in buffer
# Settings: 50 mM in 20 mM Tris pH7.5, 1 mM EDTA, 5 mM NaCl
row,SMILES,solubility
1,COC(=O)C1=C(CCN(C)C)N(C)C(CCN(C)C)=C(C(=O)OC)C1c1ccc(C(F)(F)F)cc1 [LA1011],soluble
2,COC(=O)C1=C(C)N(C)C(CCN2CCOCC2)=C(C(=O)OC)C1c1ccc(C(F)(F)F)cc1 (stereo not drawn) [LA1014],soluble
3,COC(=O)C1=C(CCN(C)C)N(C)C(CCN(C)C)=C(C(=O)OC)C1c1cc(F)cc(F)c1 [LA1026],soluble
